From PMC5346706, “Anti-metastatic effect of the TM4SF5-specific peptide vaccine and humanized monoclonal antibody on colon cancer in a mouse lung metastasis model” (Oncotarget, 2016)

Protein sequences, listed by entry. Tags and fused reporters are not part of them. Lines headed by an entry give the natural chain unless they say otherwise; changes in a name come on top.
UniProt O14894: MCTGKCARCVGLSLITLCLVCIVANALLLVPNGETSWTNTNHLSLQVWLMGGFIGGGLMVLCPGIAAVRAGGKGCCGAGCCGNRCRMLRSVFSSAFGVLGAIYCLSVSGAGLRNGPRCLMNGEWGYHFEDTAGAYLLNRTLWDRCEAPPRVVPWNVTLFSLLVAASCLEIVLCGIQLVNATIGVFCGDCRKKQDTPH

Legend:
[1] = target: T1, Myc-tagged recombinant human TM4SF5 protein (Homo sapiens (Huh-7 cDNA), UniProt O14894); assay: western blotting; whole cell lysates of HEK 293F-EV and HEK 293F-TM4SF5 cells resolved on SDS-PAGE and probed with the antibody; details: one partner purified
T1 construct: human transmembrane 4 superfamily member 5 protein (TM4SF5); cDNA amplified from Huh-7 mRNA with the printed primers (5' primer holds the ATG); also called Myc-tagged hTM4SF5; hTM4SF5

[2] = target: T2, cyclic peptide hTM4SF5EC2-C (human, disulfide bond between the two introduced cysteine residues (cyclic); biotinylated for the SPR); assay: SPR
T2 chain: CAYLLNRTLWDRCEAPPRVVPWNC

binding result [1]: binds
koff [2]: 1e-05 s⁻¹
B1: humanized anti-TM4SF5 monoclonal antibody hEC2-C-2 (antibody, V domains shown)
VH: EVQLVESGGGLVQPGGSLRLSCAASGFSLTSYGVTWVRQAPGKGLEWLGVIWSDGSTNYQSALISRLTISRDNSKNTAYLQMNSLRAEDTAVYYCARPSNYYYFDYWGQGTLVTVSS
VL: DIQMTQSPSSLSASVGDRVTITCKSSQSLFDRRTRKTYLAWYQQKPGKAPKLLISWASTRESGVPSRFSGSGSGTDFTLTISSLQPEDFATYYCKQSYNLFTFGQGTKVEIK
